# Data published in patent US20130183268A1, “DRUG COMBINATIONS WITH FLUORO-SUBSTITUTED OMEGA-CARBOXYARYL DIPHENYL UREA FOR THE TREATMENT AND PREVENTION OF DISEASES AND CONDITIONS” (BAYER HEALTHCARE LLC, priority 2010, published 2013).
# Experiment: Metabolite profile, incubation of [14C]regorafenib with liver microsomes (dog)
# Format: in vitro ADME, Beagle dog
# Conditions: [14C]regorafenib 20 μM, liver microsomes 0.5 mg/mL, 60 min
# Protocol: N-oxide (M-2), hydroxymethyl (M-3), de-methylated (M-4) and N-oxide-demethylated (M-5) metabolites of the fluoro-substituted diaryl urea of Formula (I) are shown below. They were identified as metabolites of regorafenib in vitro upon incubation with liver enzymes of various mammalian species (man, dog, rat, mouse). Studies reveal that its metabolites show high protein binding in man and animal species (data not shown). [table]
smiles,measurement,value
"CNC(=O)c1cc(Oc2ccc(NC(=O)Nc3ccc(Cl)c(C(F)(F)F)c3)c(F)c2)ccn1 [Example 1, 4{4-[3-(4-chloro-3-trifluoromethylphenyl)-ureido]-3-fluorophenoxy}-pyridine-2-carboxylic acid methylamide]","% of radioactivity, Beagle dog",70.8%
